# Target: recombinant human HPK1 (Homo sapiens (Human), UniProt Q92918)
# Amino acid sequences for entries named in this document (tags omitted).
# UniProt Q92918, whole entry: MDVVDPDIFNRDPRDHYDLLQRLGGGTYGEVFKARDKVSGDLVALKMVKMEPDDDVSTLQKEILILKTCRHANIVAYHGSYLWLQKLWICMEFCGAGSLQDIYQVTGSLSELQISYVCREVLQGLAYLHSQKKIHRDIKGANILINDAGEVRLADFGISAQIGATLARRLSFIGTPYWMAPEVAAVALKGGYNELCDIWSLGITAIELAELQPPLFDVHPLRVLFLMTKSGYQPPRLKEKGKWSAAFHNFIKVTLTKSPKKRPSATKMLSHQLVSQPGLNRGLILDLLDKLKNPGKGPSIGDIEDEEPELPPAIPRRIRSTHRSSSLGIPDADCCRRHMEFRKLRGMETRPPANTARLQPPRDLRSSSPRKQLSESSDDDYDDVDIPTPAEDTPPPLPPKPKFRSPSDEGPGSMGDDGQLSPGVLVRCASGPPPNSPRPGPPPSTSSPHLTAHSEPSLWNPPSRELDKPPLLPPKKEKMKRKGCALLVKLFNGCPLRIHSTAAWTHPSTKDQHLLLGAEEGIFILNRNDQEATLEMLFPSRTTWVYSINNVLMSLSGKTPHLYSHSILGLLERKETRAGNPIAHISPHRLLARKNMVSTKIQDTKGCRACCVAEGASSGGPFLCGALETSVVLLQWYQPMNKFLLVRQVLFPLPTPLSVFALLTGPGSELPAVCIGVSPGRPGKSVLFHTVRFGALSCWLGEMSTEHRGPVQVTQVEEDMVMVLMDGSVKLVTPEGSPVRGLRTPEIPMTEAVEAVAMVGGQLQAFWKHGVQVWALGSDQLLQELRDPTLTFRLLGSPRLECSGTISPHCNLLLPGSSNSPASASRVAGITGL
# Experiment: HPK1 kinase assay (ADP-Glo)
# Details: read-out: HPK1 IC50, 25 μM ATP, MBP substrate
# Experimental: HPK1 kinase activity was measured by Promega's ADP-Glo™ kinase assay. In this assay, 5 ng of recombinant human HPK1 (signalchem) is incubated with 5 μL of compounds (0.5% DMSO), 5 μL of MBP (0.5 μg/μl) and 5 μL of ATP (25 μM) in buffer (40 mM Tris, 7.5; 20 mM MgCl2; 0.1 mg/ml BSA; 5 μM DTT). The assay was started by incubating the reaction mixture in a 96-well plate at 30′ C for 40 minutes. After the incubation, 25 uL ADP-Glo reagent was added and the reaction was incubated at room temperature for 40-min to stop the reaction and degrade residual ATP. The ADP product was then converted to ATP by adding 50 uL per well of detection reagent. Luminescence was detected after 30-min room temperature incubation with the Molecular device I3X plate reader. The IC50 values were calculated from a series of percent inhibition values determined at a range of inhibitor concentration using software routines as implemented in the GraphPad Prism 7 software and SigmaPlot13.0.
smiles,measurement,value
Cc1ccc2[nH]ncc2c1-c1ccn2nc(NC(=O)[C@@H]3C[C@@H]3F)cc2c1,IC50,< 0.1 µM
